The record followed here is PubChem BioAssay (Tox21).

Chains of the proteins cited; added tags and fusions are not shown.
UniProt P03372, whole entry, looked up: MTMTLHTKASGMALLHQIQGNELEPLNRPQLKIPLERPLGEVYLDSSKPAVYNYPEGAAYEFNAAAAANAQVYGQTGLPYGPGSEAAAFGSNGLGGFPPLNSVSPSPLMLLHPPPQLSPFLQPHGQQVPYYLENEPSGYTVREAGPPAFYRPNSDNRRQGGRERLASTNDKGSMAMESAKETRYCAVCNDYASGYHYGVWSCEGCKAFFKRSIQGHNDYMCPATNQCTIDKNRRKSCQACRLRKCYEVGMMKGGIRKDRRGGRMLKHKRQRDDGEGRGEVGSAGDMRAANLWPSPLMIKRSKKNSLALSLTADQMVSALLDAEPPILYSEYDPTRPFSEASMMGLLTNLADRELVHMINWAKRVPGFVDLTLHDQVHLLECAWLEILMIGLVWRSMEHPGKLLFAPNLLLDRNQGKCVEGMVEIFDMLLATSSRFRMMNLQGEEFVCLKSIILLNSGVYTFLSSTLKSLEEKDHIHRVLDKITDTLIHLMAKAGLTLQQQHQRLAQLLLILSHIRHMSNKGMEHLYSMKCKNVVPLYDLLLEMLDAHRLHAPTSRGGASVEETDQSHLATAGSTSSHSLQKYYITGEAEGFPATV
UniProt Q92731, whole entry, looked up: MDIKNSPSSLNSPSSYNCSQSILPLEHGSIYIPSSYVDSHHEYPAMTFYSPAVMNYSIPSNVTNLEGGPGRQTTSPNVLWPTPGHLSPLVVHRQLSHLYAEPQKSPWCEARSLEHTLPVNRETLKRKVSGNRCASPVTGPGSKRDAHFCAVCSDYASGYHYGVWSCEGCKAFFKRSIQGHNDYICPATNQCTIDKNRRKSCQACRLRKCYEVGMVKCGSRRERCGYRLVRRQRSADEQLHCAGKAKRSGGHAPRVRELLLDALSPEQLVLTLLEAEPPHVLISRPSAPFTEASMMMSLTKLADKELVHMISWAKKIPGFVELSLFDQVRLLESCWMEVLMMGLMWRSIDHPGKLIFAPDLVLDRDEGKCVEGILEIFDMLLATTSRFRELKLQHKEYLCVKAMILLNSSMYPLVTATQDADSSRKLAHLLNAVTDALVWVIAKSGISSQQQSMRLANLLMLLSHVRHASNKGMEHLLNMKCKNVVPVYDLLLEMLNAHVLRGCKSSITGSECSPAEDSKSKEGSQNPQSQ
UniProt P16473, whole entry, looked up: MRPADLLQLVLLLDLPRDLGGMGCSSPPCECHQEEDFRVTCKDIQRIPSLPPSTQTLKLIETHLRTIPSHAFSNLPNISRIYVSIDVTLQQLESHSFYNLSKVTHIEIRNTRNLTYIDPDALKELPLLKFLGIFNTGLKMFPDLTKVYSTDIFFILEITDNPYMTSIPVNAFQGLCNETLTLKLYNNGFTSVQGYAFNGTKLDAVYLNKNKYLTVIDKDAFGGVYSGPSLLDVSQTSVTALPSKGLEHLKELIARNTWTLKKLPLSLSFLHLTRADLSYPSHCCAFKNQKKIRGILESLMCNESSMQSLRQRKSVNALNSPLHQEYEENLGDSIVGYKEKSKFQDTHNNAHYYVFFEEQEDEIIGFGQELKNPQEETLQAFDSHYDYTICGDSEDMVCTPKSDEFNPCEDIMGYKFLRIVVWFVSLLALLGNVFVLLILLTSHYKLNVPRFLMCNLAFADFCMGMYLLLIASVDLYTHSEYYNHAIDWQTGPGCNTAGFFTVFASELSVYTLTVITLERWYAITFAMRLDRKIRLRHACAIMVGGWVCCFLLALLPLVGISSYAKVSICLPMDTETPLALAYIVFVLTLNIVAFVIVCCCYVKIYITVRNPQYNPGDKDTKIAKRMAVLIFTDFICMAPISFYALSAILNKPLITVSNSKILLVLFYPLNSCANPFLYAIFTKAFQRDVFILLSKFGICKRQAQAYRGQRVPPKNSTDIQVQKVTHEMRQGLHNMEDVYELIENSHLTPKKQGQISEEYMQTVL

The entries are a selection whose mix differs from that of the whole data set. Inconclusive results are not listed. Calls of active or inactive are those of the source. Unless noted, the call rests on the fitted dose curve; in most records, active means well fitted curve in the direction sought with a large enough effect in the repeat runs; inconclusive means weak or mixed curves; inactive means no such curve, though single readings can be large; an effect the other way counts as inactive or inconclusive.

Assay [1] in a line: A CellTox Green Cytotoxicity Assay to monitor cytotoxicity in HepG2 cells - 32 hour (AID 1224883). Further: nearly all actives have a fitted effect of over 50% in size. Summed up:
(§1)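 Cytotoxicity was tracked as dead-cell DNA fluorescence in HepG2 cells treated with test compounds at 37 C; each time-point value comes from one kinetic series spanning 0, 8, 16, 24, 32 and 40 h.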

Assay [2] in a line: A CellTox Green Cytotoxicity Assay to monitor cytotoxicity in HEK293 cells - 8 hour (AID 1224884). Further: nearly all actives have a fitted effect of over 35% in size. A digest of the protocol:
(§2)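 Real-time, in one plate: 600 HEK293 cells/well with dead-cell DNA dye, pinned compound after 5 h, 37 C incubation over 40 h; viable cells give no appreciable fluorescence.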

The nature of assay [3]: qHTS RealTime-Glo MT Cell Viability Assay in HepG2 cells - 16 hour (AID 1224885). Further: nearly all actives have a fitted effect of over 50% in size. A digest of the protocol:
(§3)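 Compound treatment began 5 h after plating HepG2 cells (600/well) with NanoLuc luciferase and prosubstrate. Plates stayed at 37 C for 40 h; luminescence was captured at six time points, 0 h through 40 h.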
In general terms: In qHTS, concentration-response curves come from the screen itself.

Assay [4] can be described thus: qHTS RealTime-Glo MT Cell Viability Assay in HEK293 cells - 24 hour (AID 1224886). Further: top concentration of the series differs between compounds; nearly all actives have a fitted effect of over 50% in size. Summed up:
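Quantitative high-throughput screen of the Tox21 10K library in HEK293: cells and RealTime-Glo reagents plated together, compound added at 5 h, luminescence monitored through 40 h at 37 C.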

Assay [5] can be described thus: qHTS RealTime-Glo MT Cell Viability Assay in HEK293 cells - 8 hour (AID 1224887). Further: top concentration of the series differs between compounds; nearly all actives have a fitted effect of over 50% in size. Summed up:
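Kinetic, non-lysing viability readout. Seed HEK293 (600/well) with reagent, incubate 5 h at 37 C/5% CO2, pin 23 nL compound in DMSO, incubate at 37 C, read luminescence at 0, 8, 16, 24, 32, 40 h.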

A short description of assay [6]: A CellTox Green Cytotoxicity Assay to monitor cytotoxicity in HEK293 cells - 16 hour (AID 1224888). Further: nearly all actives have a fitted effect of over 35% in size. A digest of the protocol: as §2
The nature of assay [7]: qHTS RealTime-Glo MT Cell Viability Assay in HepG2 cells - 0 hour (AID 1224889). Further: nearly all actives have a fitted effect of over 50% in size. The conditions noted are these: RealTime-Glo luminescence; at 76.8 µM (top of the series) unless noted. Summed up:
as §3

Assay [8] in a line: A CellTox Green Cytotoxicity Assay to monitor cytotoxicity in HepG2 cells - 8 hour (AID 1224890). Further: nearly all actives have a fitted effect of over 45% in size. A digest of the protocol: as §1
Assay [9] concerns the target Estrogen receptor (Homo sapiens) (UniProt P03372). Kind of assay: qHTS assay to identify small molecule antagonists of the estrogen receptor alpha (ER-alpha) signaling pathway using the BG1 cell line in the presence of 0.1 nM 17-beta-estradiol (AID 1259244). Further: nearly all actives have a fitted effect of over 50% in size. Particulars: VM7Luc4E2 (BG1) ERE-luciferase, antagonist mode, 0.1 nM E2, 22 h; at 92.4 µM (top of the series) unless noted.

The nature of assay [10]: qHTS assay to identify small molecule HDAC inhibitors (AID 1259364).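 Further: wild-type HCT-116 cells with endogenous class I/II HDAC activity; top concentration of the series differs between compounds; nearly all actives have a fitted effect of over 45% in size.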 The conditions noted are these: HCT-116 HDAC-Glo I/II luminescence, 2 h; at 92.4 µM (top of the series) unless noted. A digest of the protocol: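 HCT-116 wt cells, 1,500/well, overnight attach. Compounds (DMSO) 2 h, 37 °C. HDAC-Glo I/II, 30 min RT. Luminescence.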
A short description of assay [11]: qHTS assay to identify small molecule agonists of the sonic hedgehog signaling (Shh) pathway - cell viability counter screen (AID 1259366). Further: nearly all actives have a fitted effect of over 50% in size. Further: potency means the concentration at half of the fitted maximal effect. A digest of the protocol: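 NIH/3T3-derived Gli1-Luc reporter cells, 2,000 per well, received compound after 4 h and were treated about 23 h at 37C. Viability measured in the same wells by CellTiter-Fluor fluorescence after 1 h.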

Assay [12] can be described thus: qHTS assay to identify small molecule agonists of the sonic hedgehog signaling (Shh) pathway (AID 1259368; calls by dose curve;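 further: NIH/3T3-derived 3T3Gli1-Luc cells carrying a stable Gli1-driven firefly luciferase reporter; nearly all actives have a fitted effect of over 15% in size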). The conditions noted are these: NIH/3T3 Gli1-Luc reporter, luciferase, 24 h, hits give high values; at 92.4 µM (top of the series) unless noted. Summed up:
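Following a 24 hr incubation with DMSO-dissolved compounds at 37 C, 5% CO2, Gli1-Luc NIH/3T3-derived cells received luciferase reagent for 30 min at room temperature prior to luminescence measurement.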

Assay [13] addresses Estrogen receptor beta (Homo sapiens) (UniProt Q92731). Kind of assay: qHTS assay to identify small molecule antagonists of the estrogen receptor beta (ER-beta) signaling pathway (AID 1259378; active means well fitted inhibition curve with a large enough effect in the signal ratio in the repeat runs, not every such curve was filed as active; the % refers to the signal ratio). Particulars: ER-beta-UAS-bla HEK293T, beta-lactamase FRET ratio, 16 h; at 92.4 µM (top of the series). A digest of the protocol: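 ER-beta-UAS-bla HEK293T cells in 2% charcoal-stripped FBS medium treated with compound plus 1nM final 17-beta-estradiol for 16 hr at 37C. Beta-lactamase reporter read by FRET substrate fluorescence after 2 hours at room temperature.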

Assay [14] in a line: qHTS assay to identify small molecule agonists of the androgen receptor (AR) signaling pathway in the presence of an antagonist - cell viability counter screen (AID 1259379).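 Further: MDA-kb2 human breast cancer cells carrying an MMTV luciferase reporter; nearly all actives have a fitted effect of over 25% in size.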 A digest of the protocol:
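Each compound was tested at 15 concentrations on MDA-kb2 cells in the presence of 3.0uM nilutamide. Viability was measured by CellTiter-Fluor fluorescence after a 16 hr incubation at 37C in a CO2-free atmosphere.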

Assay [15] addresses Estrogen receptor (Homo sapiens) (UniProt P03372). Kind of assay: qHTS assay to identify small molecule agonists of the estrogen receptor alpha (ER-alpha) signaling pathway in the presence of an antagonist (AID 1259383; calls by dose curve; further: top concentration of the series differs between compounds; nearly all actives have a fitted effect of over 15% in size). The conditions noted are these: VM7Luc4E2 cells, ERE-luciferase, +ICI-182,780, 22 h; at 92.4 µM (top of the series) unless noted.
In assay [16] the target is Estrogen receptor beta (Homo sapiens) (UniProt Q92731). As to the kind of experiment: qHTS assay to identify small molecule agonists of the estrogen receptor beta (ER-beta) signaling pathway (AID 1259377; active means well fitted activation curve with a large enough effect in the signal ratio in the repeat runs, not every such curve was filed as active; the % refers to the signal ratio). The conditions noted are these: ER-beta-UAS-bla HEK293T, beta-lactamase FRET ratio, 16 h; at 92.4 µM (top of the series) unless noted.
The nature of assay [17]: qHTS assay to identify small molecule agonists or antagonists of the thyroid stimulating hormone receptor (TSHR) signaling pathway - wild type cell line counter screen (AID 1259384; calls by dose curve). Particulars: HEK293 wild type, cAMP HTRF counter-screen, hits give high values; at 92.4 µM (top of the series) unless noted. A digest of the protocol:
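Wild-type Hek293 cells, 800/well, 18 h at 37C, then compound with Ro20-1724 for 30 min RT. cAMP by HTRF (cAMP-d2/anti-cAMP cryptate), 1 h RT, fluorescence read. 15 concentrations, triplicates.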

In assay [18] the target is Thyrotropin receptor (Homo sapiens) (UniProt P16473). Kind of assay: qHTS assay to identify small molecule antagonists of the thyroid stimulating hormone receptor (TSHR) signaling pathway (AID 1259385; calls by dose curve; further: nearly all actives have a fitted effect of over 20% in size). The conditions noted are these: TSHR-HEK293 cAMP HTRF, TSH-stimulated antagonist mode; at 92.4 µM (top of the series) unless noted.
On the % scale 0 is the no-effect control and ±100 the full control effect.

With `COC(=O)Cl`, the Potency entry in assay [1], in assay [2], in assay [3], in assay [4], in [5] and in [6] was “inactive” in each case. The Potency result in assay [8], in assay [11] and in [14] was “inactive” in each case. For the same compound, in assay [7], the activity change, negative = cytotoxicity was inactive: -0.317%. In addition, the activity change, negative = inhibition in [9] was inactive: 3.89%; in assay [10] it was inactive: -0.902%. Further, in [12], the activity change is inactive: -1.97%. The activity, negative = inhibition in [13] is inactive: -1.09%. For the same compound, in assay [15], the activation is inactive: -0.0467%.

As for `O=[p+]1oc2ccccc2c2ccccc21` (centres undefined), the Potency result in [1], in assay [3], in assay [4], in assay [5], in [6] and in assay [8] was “inactive” each time. Moreover, the Potency result in assay [11] and in [14] was “inactive” in each case. The activity change, negative = cytotoxicity in [7] is inactive: 4.82%. Besides, the activity change, negative = inhibition in [9] is inactive: 6.36%; in assay [10] it was inactive: 1.96%; in assay [18], inactive: 0.195%. In addition, in assay [12], the activity change is inactive: -1.08%. For the same compound, the activation in [16] is inactive: -1.6%; in assay [15], inactive: 0.221%. In addition, the activity, negative = inhibition in assay [13] is inactive: -0.469%. Besides, the cAMP activity change in [17] is inactive: -8.57%.

In the case of `N#CSc1ccc([N+](=O)[O-])cc1[N+](=O)[O-]`, in assay [7], the activity change, negative = cytotoxicity is inactive: -3.99%. In addition, the Potency in assay [11] is active: 7.7 µM. Moreover, the activity change in assay [12] was inactive: -12.2%. Also, the activation in assay [16] is inactive: -12.3%. For the same compound, the cAMP activity change in assay [17] was inactive: -0.196%.

Consider `CCNC(C)Cc1ccc2c(c1)OCO2` (centres undefined), for which the Potency entry in [1], in assay [2], in assay [3], in assay [4], in assay [5] and in assay [6] was “inactive” each time. Further, the Potency result in assay [8], in [11] and in assay [14] was “inactive” each time. For the same compound, the activity change, negative = cytotoxicity in [7] was inactive: -0.557%. Further, the results for the activity change, negative = inhibition in assay [9], in assay [10] and in [18] were inactive: 4.52%, inactive: 0.466% and inactive: -0.0875%, respectively. Besides, the activity change in assay [12] was inactive: 0.411%. Besides, the activation was inactive: -1.62% in assay [16] and inactive: -0.798% in [15]. In assay [17], the cAMP activity change is inactive: -0.146%.
